Data as given in BindingDB's records for doi:10.1038/305140a0 (College of France, 1983).

The chains behind the UniProt entries cited, without tags or fusion partners.
UniProt P19327, whole entry: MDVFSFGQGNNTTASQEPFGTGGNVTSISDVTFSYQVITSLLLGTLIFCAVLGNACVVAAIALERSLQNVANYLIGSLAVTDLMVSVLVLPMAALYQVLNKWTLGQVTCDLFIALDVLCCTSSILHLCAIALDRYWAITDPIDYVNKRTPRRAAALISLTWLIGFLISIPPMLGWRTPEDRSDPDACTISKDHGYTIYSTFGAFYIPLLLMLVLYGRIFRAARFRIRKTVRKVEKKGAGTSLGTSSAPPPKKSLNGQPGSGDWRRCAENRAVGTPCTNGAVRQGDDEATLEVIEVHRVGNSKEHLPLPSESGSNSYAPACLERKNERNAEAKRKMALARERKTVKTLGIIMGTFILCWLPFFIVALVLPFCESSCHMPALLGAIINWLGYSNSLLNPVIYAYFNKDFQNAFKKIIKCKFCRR

Target: 5-hydroxytryptamine receptor 1A (Rattus norvegicus, UniProt P19327)

Row | SMILES | Ki
1 | NCC(O)c1ccc(O)c(O)c1 (stereo not drawn) [Noradrenaline,(+)] | > 10000 nM
2 | COc1ccc2[nH]cc(C3=CCNCC3)c2c1 [5-Methoxy-3-(1,2,3,6-tetrahydro-pyridin-4-yl)-1H-indole(RU-24969)] | 912 nM
